Source: patent publication US7622491B2, “Modulators of PPAR and methods of their preparation” (Metabolex Inc., priority 2004, dated 2009)

Protein sequences, listed by entry. Tags and fused reporters are not part of them. Lines headed by an entry give the natural chain unless they say otherwise; changes in a name come on top. Residues count along the entry.
UniProt P35396, 210-438 limits assumed: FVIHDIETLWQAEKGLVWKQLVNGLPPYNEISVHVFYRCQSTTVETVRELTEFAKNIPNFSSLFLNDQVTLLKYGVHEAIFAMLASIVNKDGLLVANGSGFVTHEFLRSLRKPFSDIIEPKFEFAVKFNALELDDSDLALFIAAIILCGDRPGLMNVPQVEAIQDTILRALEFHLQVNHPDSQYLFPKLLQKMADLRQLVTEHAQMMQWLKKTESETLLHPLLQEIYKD
UniProt P23204, 239-466 limits assumed: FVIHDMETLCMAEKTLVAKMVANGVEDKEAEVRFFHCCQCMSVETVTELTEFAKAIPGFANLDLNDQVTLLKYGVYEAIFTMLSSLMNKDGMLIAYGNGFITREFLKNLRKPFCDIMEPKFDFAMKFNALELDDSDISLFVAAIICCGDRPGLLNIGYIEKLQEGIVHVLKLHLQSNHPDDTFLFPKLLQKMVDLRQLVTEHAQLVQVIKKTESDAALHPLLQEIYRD
UniProt P37238, 238-503 limits assumed: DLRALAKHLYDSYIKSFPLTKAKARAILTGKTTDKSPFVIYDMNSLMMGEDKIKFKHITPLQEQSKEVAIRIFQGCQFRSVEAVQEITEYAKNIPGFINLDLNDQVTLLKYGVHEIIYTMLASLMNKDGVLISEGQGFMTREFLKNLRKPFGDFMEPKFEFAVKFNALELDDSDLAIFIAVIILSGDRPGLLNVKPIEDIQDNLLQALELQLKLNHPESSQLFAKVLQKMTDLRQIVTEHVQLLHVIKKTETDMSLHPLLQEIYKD

Tests used:
mouse PPAR δ = mouse PPAR δ (Mus musculus, UniProt P35396); assay: PPAR δ transactivation (GAL4 chimeric receptor luciferase reporter) assay; conditions: read-out: Gene Activation Assay: EC50 (≦10 μM) PPAR delta; GAL4-mPPAR δ chimeric receptor, pFR-Luc reporter, HEK293T cells, 20 hours incubation
Text: (§1) Chimeric receptors were constructed in which the yeast transcription factor GAL4 DNA binding domain was fused to the ligand binding domain of either mouse PPARγ, mouse PPAR δ or mouse PPAR α in order to assess the ability of the compounds of the present invention to activate gene expression in a PPAR-dependent manner. The chimeric receptor expression plasmids (GAL4-mPPARγ, GAL4-mPPAR δ and GAL4-PPAR α) and the reporter plasmid containing 5×GAL4 binding site (pFR-Luc, obtained from Stratagene) were transfected into HEK293T cells using the Lipofectamine 2000 reagent (Invitrogen), according to the manufacturers instructions. Six hours after transfection, the culture medium was renewed and the cells were incubated for 20 hours in presence of either 1) DMSO (vehicle), 2) a compound of the invention or 3) a reference compound for comparison. Rosiglitazone (obtained from WDF Pharma) was used as a reference compound for the PPARγ assay; GW501516 (prepared as described in Sznaidman et al. Bioorg. Med. Chem. Lett. (2003) 13:1517-1521) was used as a reference compound for the PPAR δ assay and GW7647 (obtained from Sigma) was used as a reference compound for the PPAR α assay. Luciferase activity was measured as a reporter of gene expression. Luciferase activity on the cell lysates using the Steady-Glo reagent was measured according to the manufacturers instructions.

mouse PPAR α = mouse PPAR α (Mus musculus, UniProt P23204); assay: PPAR α transactivation (GAL4 chimeric receptor luciferase reporter) assay; conditions: read-out: Gene Activation Assay: EC50 (≦10 μM) PPAR alpha, pFR-Luc reporter, HEK293T cells, 20 hours incubation
Text: as §1

mouse PPARγ = mouse PPARγ (Mus musculus, UniProt P37238); assay: PPARγ transactivation (GAL4 chimeric receptor luciferase reporter) assay; conditions: read-out: Gene Activation Assay: EC50 (≦10 μM) PPAR gamma; GAL4-mPPARγ chimeric receptor, pFR-Luc reporter, HEK293T cells, 20 hours incubation
Text: as §1

Measured: EC50

O=C(O)Cc1ccc(OCCCOc2ccc(Cl)cc2-n2nc3ccccc3n2)c(Cl)c1
< 10 µM: all assays above
